Here are results for eleven compounds from US10329278B2, “Pharmaceutical compounds” (Heptares Therapeutics Limited, priority 2017, dated 2019).

Amino acid sequences for entries named in this document (tags omitted).
UniProt P08172, whole entry: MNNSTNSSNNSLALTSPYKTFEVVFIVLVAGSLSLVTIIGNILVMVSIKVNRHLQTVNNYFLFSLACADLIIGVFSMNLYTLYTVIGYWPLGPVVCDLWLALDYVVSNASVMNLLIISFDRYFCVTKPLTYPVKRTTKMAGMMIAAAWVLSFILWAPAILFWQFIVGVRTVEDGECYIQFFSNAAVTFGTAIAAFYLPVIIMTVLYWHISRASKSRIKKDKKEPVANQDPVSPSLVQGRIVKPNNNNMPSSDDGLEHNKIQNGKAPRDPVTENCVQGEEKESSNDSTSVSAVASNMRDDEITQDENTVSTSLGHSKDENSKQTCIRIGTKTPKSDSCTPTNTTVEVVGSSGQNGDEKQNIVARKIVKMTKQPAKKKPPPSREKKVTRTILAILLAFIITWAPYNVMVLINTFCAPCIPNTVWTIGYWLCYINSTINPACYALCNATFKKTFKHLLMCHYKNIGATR
UniProt P20309, whole entry: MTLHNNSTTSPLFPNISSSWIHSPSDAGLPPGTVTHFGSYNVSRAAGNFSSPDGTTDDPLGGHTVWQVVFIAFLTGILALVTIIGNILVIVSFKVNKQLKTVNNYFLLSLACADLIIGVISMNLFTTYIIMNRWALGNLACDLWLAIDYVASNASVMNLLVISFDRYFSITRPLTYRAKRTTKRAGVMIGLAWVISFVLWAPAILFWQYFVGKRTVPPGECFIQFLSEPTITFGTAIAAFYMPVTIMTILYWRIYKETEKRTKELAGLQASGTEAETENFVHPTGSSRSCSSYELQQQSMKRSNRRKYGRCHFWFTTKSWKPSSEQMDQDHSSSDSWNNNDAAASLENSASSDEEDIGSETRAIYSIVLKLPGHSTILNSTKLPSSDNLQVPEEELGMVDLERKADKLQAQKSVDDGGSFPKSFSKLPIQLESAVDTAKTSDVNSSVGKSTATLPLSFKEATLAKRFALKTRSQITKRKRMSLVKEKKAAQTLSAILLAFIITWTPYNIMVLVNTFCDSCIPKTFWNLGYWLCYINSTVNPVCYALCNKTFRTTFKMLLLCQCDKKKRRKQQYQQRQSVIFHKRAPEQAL
UniProt P11229, whole entry: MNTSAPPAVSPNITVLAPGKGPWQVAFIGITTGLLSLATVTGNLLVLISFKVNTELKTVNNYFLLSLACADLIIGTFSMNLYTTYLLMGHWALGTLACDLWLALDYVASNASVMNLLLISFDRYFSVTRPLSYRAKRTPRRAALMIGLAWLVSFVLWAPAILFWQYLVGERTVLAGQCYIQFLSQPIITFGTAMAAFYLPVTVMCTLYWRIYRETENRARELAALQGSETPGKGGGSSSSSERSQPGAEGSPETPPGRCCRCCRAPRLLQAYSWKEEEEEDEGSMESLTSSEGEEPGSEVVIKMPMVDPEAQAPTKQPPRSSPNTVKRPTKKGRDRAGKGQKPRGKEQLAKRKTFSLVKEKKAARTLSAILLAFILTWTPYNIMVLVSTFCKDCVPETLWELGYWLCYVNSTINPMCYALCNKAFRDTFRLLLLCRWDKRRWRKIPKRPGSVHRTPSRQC
UniProt P08173, whole entry: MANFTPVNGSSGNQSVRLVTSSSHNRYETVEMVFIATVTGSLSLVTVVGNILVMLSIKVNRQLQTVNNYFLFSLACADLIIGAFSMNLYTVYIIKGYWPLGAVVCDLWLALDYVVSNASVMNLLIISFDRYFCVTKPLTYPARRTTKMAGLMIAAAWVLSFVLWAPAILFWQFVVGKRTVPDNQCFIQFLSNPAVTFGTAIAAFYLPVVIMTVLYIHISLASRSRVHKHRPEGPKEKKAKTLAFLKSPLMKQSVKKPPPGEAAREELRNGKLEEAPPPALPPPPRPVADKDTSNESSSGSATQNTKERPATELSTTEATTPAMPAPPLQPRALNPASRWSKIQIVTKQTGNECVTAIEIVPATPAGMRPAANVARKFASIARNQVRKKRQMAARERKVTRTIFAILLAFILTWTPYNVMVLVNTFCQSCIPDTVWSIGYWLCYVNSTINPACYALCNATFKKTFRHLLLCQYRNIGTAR

The target in test [1] is human muscarinic M2 receptor (Homo sapiens, UniProt P08172). The experiment in a line: Alphascreen Surefire phospho-ERK1/2 functional assay, M2. Format: cell-based. As to conditions: CHO cells stably expressing human M2; relative to ACh. (In general: Bead proximity is the source of the signal in Alpha formats.)
For test [2], the target named is human muscarinic M3 receptor (Homo sapiens, UniProt P20309). The experiment in a line: Alphascreen Surefire phospho-ERK1/2 functional assay, M3. As to conditions: CHO cells stably expressing human M3; for pEC50 M3: agonist 5 min, 37° C.; for % Emax cf. ACh (M3): relative to ACh. It counts as cell-based.
The target in test [3] is human muscarinic M1 receptor (Homo sapiens, UniProt P11229). The experiment in a line: Alphascreen Surefire phospho-ERK1/2 functional assay, M1. As to conditions: CHO cells stably expressing human M1; for pEC50 M1: agonist 5 min, 37° C.; for % Emax cf. ACh (M1): relative to ACh.
Test [4] deals with human muscarinic M4 receptor (Homo sapiens, UniProt P08173). The experiment in a line: Alphascreen Surefire phospho-ERK1/2 functional assay, M4. It counts as cell-based. The settings on record: CHO cells stably expressing human M4; for pEC50 M4: agonist 5 min, 37° C.; for % Emax cf. ACh (M4): relative to ACh.

As for `CCOC(=O)N1CC2(CCC(N3C[C@@H]4[C@H](C3)[C@H]4C(=O)N(CC)CC)C2)C1` (some centres unmarked), the “% Emax cf. ACh (M2)” value in test [1] is 20%. In test [2], the “pEC50 M3” value was 4.70 and the “% Emax cf. ACh (M3)” value is 21%. Besides, in test [3], the “pEC50 M1” value amounted to 8.32 and the “% Emax cf. ACh (M1)” value is 92%. In test [4], the “pEC50 M4” value is listed as 7.79 and the “% Emax cf. ACh (M4)” value is given as 79%.
Take `CCOC(=O)N1CCC2(CC(N3C[C@@H]4[C@H](C3)[C@H]4C(=O)N(CC)C3CC3)C2)C1` (some centres unmarked): in test [1], the “% Emax cf. ACh (M2)” value was found to be 20%. Further, in test [2], the “pEC50 M3” value turned out to be 4.70 and the “% Emax cf. ACh (M3)” value came out at 55%. In addition, in test [3], the “pEC50 M1” value was 7.69 and the “% Emax cf. ACh (M1)” value was found to be 100%. Also, in test [4], the “pEC50 M4” value is reported as 7.17 and the “% Emax cf. ACh (M4)” value stood at 85%.
On to `CCOC(=O)[C@H]1[C@@H]2CN(C3CCC4(C3)CN(C(=O)OCC)C4)C[C@@H]21` (some centres unmarked), for which the “% Emax cf. ACh (M2)” value in test [1] is recorded as 4%. Further, in test [2], the “pEC50 M3” value amounted to 4.70 and the “% Emax cf. ACh (M3)” value is 2%. Also, in test [3], the “pEC50 M1” value is 4.70 and the “% Emax cf. ACh (M1)” value is 21%. Further, in test [4], the “pEC50 M4” value stood at 7.89 and the “% Emax cf. ACh (M4)” value amounted to 62%.
In the case of `CCOC(=O)N1CC2CC(C1)C2N1C[C@@H]2[C@H](C1)[C@H]2C(=O)N(CC)CC` (single isomer, unassigned), in test [1], the “% Emax cf. ACh (M2)” value is reported as 10%. Further, in test [3], the “pEC50 M1” value was 7.00 and the “% Emax cf. ACh (M1)” value stood at 134%. Further, in test [4], the “pEC50 M4” value stood at 5.58 and the “% Emax cf. ACh (M4)” value was 95%.
Turning to `CCOC(=O)N1CCC2(CC(N3C[C@@H]4[C@H](C3)[C@H]4C(=O)N(C)CC)C2)C1` (single isomer, unassigned), the “% Emax cf. ACh (M2)” value in test [1] is on record as 9%. Moreover, in test [2], the “pEC50 M3” value came out at 4.70 and the “% Emax cf. ACh (M3)” value was determined as 20%.
With `CCOC(=O)N1CCC2(CC(N3C[C@@H]4[C@H](C3)[C@H]4C(=O)NCC(C)C)C2)C1` (single isomer, unassigned) [2-2 Isomer 2], the “% Emax cf. ACh (M2)” value in test [1] is on record as 8%. In test [2], the “pEC50 M3” value is on record as 4.70 and the “% Emax cf. ACh (M3)” value is 2%. In addition, in test [3], the “pEC50 M1” value came to 7.10 and the “% Emax cf. ACh (M1)” value is listed as 101%. In addition, in test [4], the “pEC50 M4” value came to 6.56 and the “% Emax cf. ACh (M4)” value is recorded as 63%.
Consider `CCOC(=O)N1CCCC(N2C[C@@H]3[C@H](C2)[C@H]3C(=O)N(CC)CC)CC1` (single isomer, unassigned) [11-1 Isomer 1], for which, in test [3], the “pEC50 M1” value was determined as 7.98 and the “% Emax cf. ACh (M1)” value turned out to be 97%. Moreover, in test [4], the “pEC50 M4” value was found to be 6.90 and the “% Emax cf. ACh (M4)” value is 84%.
Turning to `CCOC(=O)N1CCCC(N2C[C@@H]3[C@H](C2)[C@H]3C(=O)N(CC)CC)CC1` (single isomer, unassigned) [11-1 Isomer 2], in test [3], the “pEC50 M1” value is given as 7.43 and the “% Emax cf. ACh (M1)” value is 94%. Also, in test [4], the “pEC50 M4” value is recorded as 6.33 and the “% Emax cf. ACh (M4)” value worked out at 62%.
The matching figures for `CCOC(=O)N1CC2CC(N3C[C@@H]4[C@H](C3)[C@H]4C(=O)N(CC)CC)CC1C2` (single isomer, unassigned) [11-2 Isomer 1]: 6.41, 37%, 4.70 and 3%.
The like results for `CCOC(=O)N1CC2CC(N3C[C@@H]4[C@H](C3)[C@H]4C(=O)N(CC)CC)CC2C1` (single isomer, unassigned) [12-1 Isomer 1] were, in that order, 6.21, 49%, 4.70 and 6%.
The like results for `CCOC(=O)N1CC2CC(N3C[C@@H]4[C@H](C3)[C@H]4C(=O)N(CC)CC)CC2C1` (single isomer, unassigned) [12-1 Isomer 2] were, in that order, 5.94, 49%, 4.70 and 8%.
